# Target: T1, glucosylceramide synthase (GCS) (Canis lupus familiaris, UniProt A0A8I3MXG6)
# T1 construct: endogenous in cells; host or cells: parental (wild-type) MDCKII cells
# T1 sequence (A0A8I3MXG6 1-394): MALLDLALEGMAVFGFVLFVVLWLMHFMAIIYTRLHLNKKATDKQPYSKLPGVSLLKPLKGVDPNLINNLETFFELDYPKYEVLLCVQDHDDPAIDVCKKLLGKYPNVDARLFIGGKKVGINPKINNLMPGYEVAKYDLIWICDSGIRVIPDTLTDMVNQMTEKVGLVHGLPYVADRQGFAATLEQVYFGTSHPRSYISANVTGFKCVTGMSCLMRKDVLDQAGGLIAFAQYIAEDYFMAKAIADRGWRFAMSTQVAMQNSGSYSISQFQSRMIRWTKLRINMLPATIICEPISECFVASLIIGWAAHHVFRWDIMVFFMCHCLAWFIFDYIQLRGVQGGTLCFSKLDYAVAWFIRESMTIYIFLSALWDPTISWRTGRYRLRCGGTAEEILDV
# Experiment: GCS inhibition in MDCKII cells (inhibition of GlcCer production in whole wild-type MDCKII cells)
# Type: cell-based
# Details: Table 2, Cl vs H comparison; read-out: MDCK IC50
row,SMILES,IC50 [nM]
1,"O=C(CC1Cc2ccccc2C1)N[C@H](CN1CCCC1)[C@H](O)c1ccc(OC(F)(F)F)cc1 [Comp. Ex. 3, reference compound]",3.6
2,"O=C(CC1Cc2ccccc2C1)N[C@H](CN1CCCC1)[C@H](O)c1ccc(OC(F)F)cc1 [Comp. Ex. 9, reference compound]",9.6

# — patent publication US11220479B2, “Glucosylceramide synthase inhibitors and therapeutic methods using the same” (THE REGENTS OF THE UNIVERSITY OF MICHIGAN, priority 2019, dated 2022)
